Source: patent publication US10259779B2 (WAYNE STATE UNIVERSITY, priority 2016, dated 2019)

Protein sequences, listed by entry. Tags and fused reporters are not part of them. Lines headed by an entry give the natural chain unless they say otherwise; changes in a name come on top.
UniProt O15379: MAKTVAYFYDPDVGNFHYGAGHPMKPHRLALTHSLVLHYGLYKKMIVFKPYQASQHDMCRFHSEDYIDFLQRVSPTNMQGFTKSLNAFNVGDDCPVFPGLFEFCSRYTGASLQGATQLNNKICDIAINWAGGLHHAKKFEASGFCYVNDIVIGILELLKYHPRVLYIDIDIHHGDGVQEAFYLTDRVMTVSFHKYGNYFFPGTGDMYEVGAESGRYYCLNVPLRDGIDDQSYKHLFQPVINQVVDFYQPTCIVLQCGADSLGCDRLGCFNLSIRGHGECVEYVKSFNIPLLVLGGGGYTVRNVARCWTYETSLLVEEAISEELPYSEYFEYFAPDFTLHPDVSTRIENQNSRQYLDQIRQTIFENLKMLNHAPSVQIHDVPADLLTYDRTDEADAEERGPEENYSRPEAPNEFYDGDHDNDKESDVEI
UniProt Q92769, whole entry: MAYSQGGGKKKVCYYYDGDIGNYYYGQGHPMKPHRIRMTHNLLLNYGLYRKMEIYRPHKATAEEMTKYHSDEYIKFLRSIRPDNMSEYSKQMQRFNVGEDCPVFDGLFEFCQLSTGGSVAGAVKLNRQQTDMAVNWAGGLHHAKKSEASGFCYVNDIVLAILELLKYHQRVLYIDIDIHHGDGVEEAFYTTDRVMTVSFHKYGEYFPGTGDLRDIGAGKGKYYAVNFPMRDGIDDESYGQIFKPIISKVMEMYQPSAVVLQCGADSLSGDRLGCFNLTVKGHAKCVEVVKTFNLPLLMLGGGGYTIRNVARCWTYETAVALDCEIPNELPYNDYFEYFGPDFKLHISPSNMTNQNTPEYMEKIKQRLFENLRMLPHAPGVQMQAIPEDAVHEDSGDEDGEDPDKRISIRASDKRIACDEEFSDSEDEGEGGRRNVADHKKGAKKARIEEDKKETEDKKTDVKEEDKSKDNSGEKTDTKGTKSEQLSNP
UniProt Q13547, whole entry: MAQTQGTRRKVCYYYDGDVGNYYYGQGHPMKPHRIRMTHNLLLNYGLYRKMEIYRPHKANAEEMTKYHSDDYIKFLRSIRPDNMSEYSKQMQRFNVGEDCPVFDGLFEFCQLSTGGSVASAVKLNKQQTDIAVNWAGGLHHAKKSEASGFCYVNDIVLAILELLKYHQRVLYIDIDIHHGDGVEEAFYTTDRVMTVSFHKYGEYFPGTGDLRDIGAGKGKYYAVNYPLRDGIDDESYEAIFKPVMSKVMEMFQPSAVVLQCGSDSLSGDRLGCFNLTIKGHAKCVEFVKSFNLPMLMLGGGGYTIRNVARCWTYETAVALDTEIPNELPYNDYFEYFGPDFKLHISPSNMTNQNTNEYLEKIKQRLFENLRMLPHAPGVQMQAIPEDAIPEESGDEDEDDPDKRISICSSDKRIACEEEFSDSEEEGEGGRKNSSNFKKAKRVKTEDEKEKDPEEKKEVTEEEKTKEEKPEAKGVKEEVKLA

What was measured:
HDAC6 = molecular target: T1, HDAC6 (Homo sapiens, UniProt Q9UBN7); test: ELISA-based HDAC activity assay, HDAC6
T1 sequence (Q9UBN7 1-1215): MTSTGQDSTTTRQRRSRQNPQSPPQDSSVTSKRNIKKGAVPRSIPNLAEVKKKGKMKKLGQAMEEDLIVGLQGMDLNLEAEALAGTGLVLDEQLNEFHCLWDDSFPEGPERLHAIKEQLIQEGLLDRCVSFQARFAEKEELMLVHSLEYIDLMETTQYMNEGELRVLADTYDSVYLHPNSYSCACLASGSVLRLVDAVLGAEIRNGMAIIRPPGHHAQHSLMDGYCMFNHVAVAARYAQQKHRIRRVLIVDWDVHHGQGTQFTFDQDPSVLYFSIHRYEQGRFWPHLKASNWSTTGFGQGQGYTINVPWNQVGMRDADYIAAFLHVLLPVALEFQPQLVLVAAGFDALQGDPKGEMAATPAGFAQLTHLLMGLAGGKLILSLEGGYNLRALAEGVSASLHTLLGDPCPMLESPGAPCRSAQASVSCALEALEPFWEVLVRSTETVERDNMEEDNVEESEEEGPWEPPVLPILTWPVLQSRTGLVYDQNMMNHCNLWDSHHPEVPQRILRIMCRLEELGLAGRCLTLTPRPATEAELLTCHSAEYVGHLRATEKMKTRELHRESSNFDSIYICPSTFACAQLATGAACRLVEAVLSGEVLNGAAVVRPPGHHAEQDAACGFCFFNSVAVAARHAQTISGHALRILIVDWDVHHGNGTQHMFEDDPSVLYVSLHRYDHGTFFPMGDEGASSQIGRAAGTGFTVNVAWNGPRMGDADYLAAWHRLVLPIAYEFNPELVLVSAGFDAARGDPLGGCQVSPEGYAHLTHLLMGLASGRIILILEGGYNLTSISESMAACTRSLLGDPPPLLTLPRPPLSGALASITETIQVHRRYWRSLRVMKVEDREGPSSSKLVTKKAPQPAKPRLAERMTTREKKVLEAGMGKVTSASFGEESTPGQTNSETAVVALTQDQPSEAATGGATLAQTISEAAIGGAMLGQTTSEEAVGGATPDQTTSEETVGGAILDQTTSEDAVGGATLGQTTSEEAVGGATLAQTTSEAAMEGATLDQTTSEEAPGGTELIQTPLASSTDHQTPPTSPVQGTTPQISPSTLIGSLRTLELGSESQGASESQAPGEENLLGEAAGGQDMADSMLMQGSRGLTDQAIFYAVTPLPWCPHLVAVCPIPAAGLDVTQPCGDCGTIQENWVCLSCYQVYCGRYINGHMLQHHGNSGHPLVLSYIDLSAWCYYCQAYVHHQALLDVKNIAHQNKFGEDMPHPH

HDAC3 = HDAC3 (Homo sapiens, UniProt O15379); test: ELISA-based HDAC activity assay, HDAC3
HDAC2 = HDAC2 (Homo sapiens, UniProt Q92769); test: ELISA-based HDAC activity assay, HDAC2
HDAC1 = HDAC1 (Homo sapiens, UniProt Q13547); test: ELISA-based HDAC activity assay, HDAC1
HDAC8 = molecular target: T2, HDAC8 (Homo sapiens, UniProt Q9BY41); test: Recombinant HDAC8 inhibition (HDAC-Glo); format: biochemical; set-up: purchased BPS Bioscience
T2 sequence (Q9BY41 1-377): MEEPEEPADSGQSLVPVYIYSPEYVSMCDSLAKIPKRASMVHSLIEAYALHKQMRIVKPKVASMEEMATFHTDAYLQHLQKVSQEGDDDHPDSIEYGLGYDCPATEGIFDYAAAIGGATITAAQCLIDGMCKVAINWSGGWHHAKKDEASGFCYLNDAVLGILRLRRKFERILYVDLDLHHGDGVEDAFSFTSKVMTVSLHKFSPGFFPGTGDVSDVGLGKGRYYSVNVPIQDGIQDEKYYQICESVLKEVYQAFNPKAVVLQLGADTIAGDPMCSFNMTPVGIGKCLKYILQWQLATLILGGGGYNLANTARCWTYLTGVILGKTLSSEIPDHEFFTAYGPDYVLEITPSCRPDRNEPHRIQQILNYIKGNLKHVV

CCCCC(CCCC(=O)Nc1ccccc1)CCC(=O)NO (racemic) [Compound 1c, 4-butyl-N^1-hydroxy-N^8-phenyloctanediamide]
IC50 (HDAC6): 88 ± 7 nM | IC50 (HDAC3): 23 µM | IC50 (HDAC2): 18 µM | IC50 (HDAC1): 15 µM | IC50 (HDAC8): 74 ± 2 nM
